Experimental data as given in ChEMBL document CHEMBL6087392, “Discovery of ZG-2305, an Orally Bioavailable Factor Inhibiting HIF Inhibitor for the Treatment of Obesity and Fatty Liver Disease” (J Med Chem, 2025).
Calls of active or inactive are those of the source. No cut-off for these calls is given here.

What was measured:
Format in all cases: functional, organism-based
Conditions in all cases: time 30.0 day
Mus musculus [1] = experiment: Anti-obesity activity in male ob/ob mouse model assessed as reduction in reduction in food uptake at 30 nmol/kg, ip administered once a week for 30 days
Mus musculus [2] = experiment: Anti-obesity activity in male ob/ob mouse model assessed as reduction in reduction in brown adipose tissue at 30 nmol/kg, ip administered once a week for 30 days
Mus musculus [3] = experiment: Anti-obesity activity in male ob/ob mouse model assessed as reduction in reduction in epididymal white adipose tissue at 30 nmol/kg, ip administered once a week for 30 days
Mus musculus [4] = experiment: Anti-obesity activity in male ob/ob mouse model assessed as reduction in reduction in inguinal white adipose tissue at 30 nmol/kg, ip administered once a week for 30 days
Mus musculus [5] = experiment: Anti-obesity activity in male ob/ob mouse model assessed as reduction in reduction in liver weight at 30 nmol/kg, ip administered once a week for 30 days
Mus musculus [6] = experiment: Anti-obesity activity in male ob/ob mouse model assessed as reduction in body weight at 30 nmol/kg, ip administered once a week for 30 days
Mus musculus [7] = experiment: Anti-obesity activity in male ob/ob mouse model assessed as reduction in reduction in inguinal white adipose tissue at 20 mg/kg, IG administered every other day for 30 days
Mus musculus [8] = experiment: Anti-obesity activity in male ob/ob mouse model assessed as reduction in weight gain at 20 mg/kg, IG administered every other day for 30 days
Mus musculus [9] = experiment: Anti-obesity activity in male ob/ob mouse model assessed as reduction in reduction in brown adipose tissue at 20 mg/kg, IG administered every other day for 30 days
Mus musculus [10] = experiment: Anti-obesity activity in male ob/ob mouse model assessed as reduction in reduction in epididymal white adipose tissue at 20 mg/kg, IG administered every other day for 30 days
Mus musculus [11] = experiment: Anti-obesity activity in male ob/ob mouse model assessed as reduction in food uptake at 20 mg/kg, IG administered every other day for 30 days
Mus musculus [12] = experiment: Anti-obesity activity in male ob/ob mouse model assessed as reduction in reduction in liver weight at 20 mg/kg, IG administered every other day for 30 days

SMILES | Activity (Mus musculus [1]) | Activity (Mus musculus [2]) | Activity (Mus musculus [3]) | Activity (Mus musculus [4]) | Activity (Mus musculus [5]) | Activity (Mus musculus [6]) | Activity (Mus musculus [7]) | Activity (Mus musculus [8]) | Activity (Mus musculus [9]) | Activity (Mus musculus [10]) | Activity (Mus musculus [11]) | Activity (Mus musculus [12])
CC[C@H](C)[C@H](NC(=O)[C@H](Cc1ccccc1)NC(=O)[C@H](CCC(=O)O)NC(=O)[C@@H](CCCCNC(=O)COCCOCCNC(=O)COCCOCCNC(=O)CCC(NC(=O)CCCCCCCCCCCCCCCCC(=O)O)C(=O)O)NC(=O)[C@H](C)NC(=O)[C@H](C)NC(=O)[C@H](CCC(N)=O)NC(=O)CNC(=O)[C@H](CCC(=O)O)NC(=O)[C@H](CC(C)C)NC(=O)[C@H](Cc1ccc(O)cc1)NC(=O)[C@H](CO)NC(=O)[C@H](CO)NC(=O)[C@@H](NC(=O)[C@H](CC(=O)O)NC(=O)[C@H](CO)NC(=O)[C@@H](NC(=O)[C@H](Cc1ccccc1)NC(=O)[C@@H](NC(=O)CNC(=O)[C@H](CCC(=O)O)NC(=O)C(C)(C)NC(=O)[C@@H](N)Cc1cnc[nH]1)[C@@H](C)O)[C@@H](C)O)C(C)C)C(=O)N[C@@H](C)C(=O)N[C@@H](Cc1c[nH]c2ccccc12)C(=O)N[C@@H](CC(C)C)C(=O)N[C@H](C(=O)N[C@@H](CCCNC(=N)N)C(=O)NCC(=O)N[C@@H](CCCNC(=N)N)C(=O)NCC(=O)O)C(C)C (some centres not stated) | Active | inactive | inactive | Active | Active | inactive |  |  |  |  |  | 
CCCCCCCCCCC[C@@H](C[C@@H]1OC(=O)[C@H]1CCCCCC)OC(=O)[C@H](CC(C)C)NC=O |  |  |  |  |  |  | Active | Active | inactive | inactive | Active | Active
